Nrf2 inh = inhibitors of Nrf2 signaling; A549 ARE-Fluc reporter, luciferase luminescence, 18-24 h; Potency, µM (titrated, usually from 46 µM), usual class: inhibitors; actives 2.1% (n = 360,000); AID 504444; also: nearly all actives have a fitted effect of over 60% in size
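Nrf2 activity is the BugLite luminescence, read 15 min after reagent at room temperature, following CellTiter-Fluor cytotoxicity readout (30 min, 37C). Compound titrations were applied for 18-24 h to 5000 A549 ARE_Fluc cells/well in 5% FBS OPTI-MEM.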
miR-21 reporter = raises the signal of a miR-21 reporter; AID 2288; 340,000 tested, under 10 active; Potency, µM (doses to about 38.3 µM); HeLa miR-21 FLuc reporter, luciferase, 48 h; active = well fitted rising curve with a large enough effect; inconclusive = small, poorly fitted or top-dose-only effect; inactive = no such curve, though single readings can be large or run the other way;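 note: miR-21 action dims this reporter so a rising signal means less miR-21 action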
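HeLa cells endogenously expressing miR-21, stably carrying CMV-driven firefly luciferase with a downstream miR-21 binding site, 2000 cells/well. Titrations up to approximately 40 uM, 48 hours; luciferase luminescence read.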
A549 viability = kills or reduces viability of A549 cells in Nrf2 counter-screen. AID 504648. actives 0.16% (n = 390,000). Potency, µM (doses to about 46 µM), hits mostly inhibitors. A549 ARE-Fluc cells, CellTiter-Fluor viability, 18-24 h
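A549 ARE_Fluc cells in 5% FBS OPTI-MEM were exposed to compounds in concentration-response for 18-24 h at 37 deg C. Viability was read by CellTiter-Fluor fluorescence (Ex 405/Em 525) after 30 min, before the luciferase read.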
Nrf2 activator = Nrf2 pathway activation. AREc32 ARE-luciferase reporter (MCF7-derived line), luminescence, 24 h. Potency, µM (top dose mostly 46.1 µM), actives largely listed as activators. actives 0.31% (n = 410,000); also: nearly all actives have a fitted effect of over 65% in size
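AREc32 cells carrying an ARE-driven firefly luciferase reporter were seeded at 1000 cells/well in OPTI-MEM with 5% FBS, then exposed to compound for 24 hr at 37 deg C. Luminescence was read with Steady-Glo after 30 min at RT.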
GRP78 ERSR act = induces the endoplasmic reticulum stress response in human glioma cells; U87-MG GRP78 promoter luciferase reporter, 16 h; Potency, µM, usual class: activators; actives 0.02% (n = 420,000); also: series mostly up to about 76 µM; nearly all actives have a fitted effect of over 35% in size
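Stably transfected U87-MG glioma cells carrying a GRP78-based luciferase sensor; 16 h compound incubation. Luminescence end-point read 10 min after Bright-Glo addition at room temperature.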
TSG101-PTAP inh = blocks PTAP/TSG101 interaction to inhibit HIV-1 budding; 340,000 tested, under 10 active; Potency, µM (series often up to 115 µM), most hits filed as inhibitors; Fluorescence polarization, FITC-PTAP peptide / Tsg101 binding; AID 493005; active = well fitted inhibition curve with a large enough effect in the main read-out, with a control signal flat, not every such curve was filed as active; inconclusive = small, poorly fitted or top-dose-only effect, or effect the other way, or a change in a side signal; inactive = no such curve, though single readings can be large or run the other way
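Fluorescence polarization binding of Tsg101 binding domain (10 uM final) to FITC-labeled PTAP peptide (50 nM final) in HEPES pH 7.5 buffer with NaCl, Tween 20, EDTA, TCEP. Compounds added before peptide; binding 20 min at RT.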
Numbers stand for hits; i = inactive; ? = inconclusive; nt = no result given. Compounds with a hit are over-represented: about 2.1% of the library has one in this group of screens. Unless noted, calls follow the shape of the dose curve; as a rule, active = well fitted curve in the direction sought with a large enough effect; inconclusive = small, poorly fitted or top-dose-only effect, or another doubt; inactive = no such curve, though single readings can be large; an effect the other way counts as inactive or inconclusive.

SMILES | Nrf2 inh | miR-21 reporter | A549 viability | Nrf2 activator | GRP78 ERSR act | TSG101-PTAP inh
C=CC[n+]1cccc2cc(Br)ccc21 | nt | nt | nt | nt | i | nt
Cc1nc(NC(=O)CCl)sc1C(=O)N(C)C | i | i | i | 12.6µM | i | i
COc1ccc2nccc(/C=C/c3ccc(N(C)C)cc3)c2c1 | nt | nt | nt | nt | i | nt
c1ccc(-c2nc(NCc3ccco3)c3ccccc3n2)nc1 | 20.6µM | ? | i | i | i | i
Oc1ccccc1-c1nc(NCc2ccco2)c2ccccc2n1 | i | i | i | ? | i | i
COc1cccc(CN2CCC(n3cc(C(=O)N4CCCCC4)nn3)CC2)c1OC | nt | nt | nt | nt | i | nt
Cc1cccc(-c2cccc(C(=O)N3CCc4c(cnc(C)c4CNC(=O)c4cncs4)C3)c2)c1 | nt | nt | nt | nt | i | nt
Cc1cccc(CN2C[C@H](Sc3ccccn3)C[C@H]2C(=O)Nc2ccc3sc(C)nc3c2)c1 | nt | nt | nt | nt | i | nt
O=S(=O)(c1ccc(F)cc1)N1CCN(CCOc2ccccc2)CC1 | i | nt | i | i | i | i
Cc1ccc(S(=O)(=O)N2CCN(CCOc3cccc(C)c3)CC2)cc1 | 20.6µM | nt | i | i | i | i
O=C(c1ccc(S(=O)(=O)Cc2cc(F)ccc2F)c([N+](=O)[O-])c1)N1CCOCC1 | nt | nt | nt | 12.6µM | i | nt
CSc1nnc(N2C(=O)C(O)=C(C(=O)c3ccco3)C2c2ccccc2F)s1 (stereo not given) | i | i | i | 14.1µM | i | i
CCCn1nc(C(=O)Nc2nc(-c3ccccn3)cs2)c2ccccc2c1=O | 8.2µM | nt | i | i | i | i
CC(C)[C@H](NC(=O)c1ccccc1Cl)C(=O)Nc1nc(-c2ccccn2)cs1 | 14.6µM | i | i | i | i | i
CC(Oc1ccc(Br)cc1)C(=O)Nc1nc(-c2ccccn2)cs1 (stereo not given) | 16.4µM | i | ? | ? | i | i
O=C(Nc1nc(-c2ccccn2)cs1)c1ccccc1-n1cnnn1 | 5.8µM | ? | i | i | i | i
CCn1nc(C(=O)Nc2nc(-c3ccccn3)cs2)c2ccccc2c1=O | ? | nt | i | i | i | i
COc1ccc(C(=O)c2sc(Nc3cccc(OC)c3)c(C(=O)Nc3cccc(C)c3C)c2N)cc1 | 23.1µM | i | ? | i | 12.6µM | i
Cc1cc(Nc2sc(C(=O)c3ccc(F)cc3)c(N)c2C(=O)Nc2ccc(F)cc2)ccc1Cl | nt | ? | 16.4µM | i | i | nt
COc1ccc(NC(=O)c2c(Nc3ccccc3)sc(C(=O)c3ccc(F)cc3)c2N)cc1 | ? | i | i | i | i | i
COc1cc2nc(CCc3nc4cc(OC)c(OC)cc4[nH]3)[nH]c2cc1OC | nt | nt | nt | nt | i | nt
O=C(Cc1ccc(Oc2ccccc2)cc1)NO | nt | nt | nt | nt | i | nt
CNC(=O)/C(C#N)=C/c1ccc(-c2nc3ccccc3s2)o1 | i | i | i | i | i | i
N#C/C(=C\c1ccc(-c2nc3ccccc3s2)o1)C(N)=O | ? | i | i | 11.2µM | i | i
CCCCCCCCCCCCCCCCCCNC(=O)OC1CCN(C(=O)OC[C@H](COC(=O)N(Cc2cccc[n+]2CC)C(=O)c2ccccc2OC)OC)CC1 | nt | nt | nt | nt | i | nt
SMILES | Nrf2 inh | miR-21 reporter | A549 viability | Nrf2 activator | GRP78 ERSR act | TSG101-PTAP inh
O=C(NCC1Cc2cccc(-c3cnccn3)c2O1)c1ccc(F)c(Cl)c1 (stereo not given) | nt | nt | nt | nt | i | nt
O=c1[nH]c(/C(Cl)=C/c2c(F)cccc2Cl)nc2cc(Cl)ccc12 | ? | i | i | i | i | i
O=c1[nH]c(/C(Cl)=C/c2cc(Cl)ccc2O)nc2cc(Cl)ccc12 | i | i | i | 8.91µM | i | i
O=C(Nc1ccc(Cl)cc1Cl)[C@@H]1CC=C[C@@H]2CCN(C3CC3)C(=O)[C@@H]21 | nt | nt | nt | nt | i | nt
CCC(=O)C(Cc1ccccc1)(Cc1ccccc1)CC(C)N(C)C (stereo not given) | nt | nt | nt | nt | i | nt
COc1cccc(CNC(=O)CN2CCC(c3nc4ccc(C)cc4[nH]3)CC2)c1 | 16.4µM | i | i | i | i | i
COc1ccccc1NC(=O)CN1CCC(c2nc3ccc(C)cc3[nH]2)CC1 | i | i | i | i | i | i
CCN(CC)S(=O)(=O)c1cccc(NC(=O)C2CC(=O)N(c3ccc4c(c3)OCCO4)C2)c1 (stereo not given) | 23.1µM | nt | i | i | i | i
Cc1nc(C)n(CC(=O)N2CCOc3ccc(CN4CCN(C)C[C@@H]4c4ccccc4)cc3C2)n1 | nt | nt | nt | nt | i | nt
CC(=O)Nc1ccccc1-c1nc(CNC(=O)c2ccc(-n3cccn3)cc2)c(C)o1 | nt | nt | nt | nt | i | nt
COc1cc(C(=O)NC2CCCc3c2cnn3-c2ccccc2F)cc(OC)c1OC (stereo not given) | 6.51µM | i | i | i | i | i
CC(C)(C)c1ccc(-n2ncc3c2CCCC3NC(=O)C2=NNC(=O)CC2)cc1 (stereo not given) | 8.2µM | i | i | i | i | i
Cc1cc(C(=O)NC2CCCc3c2cnn3-c2ccc(C)c(C)c2)no1 (stereo not given) | 10.3µM | i | i | i | i | i
CCn1nc(C)cc1C(=O)NC1CCCc2c1cnn2-c1ccc(C)c(C)c1 (stereo not given) | 11.6µM | i | i | i | i | i
Cc1ccccc1C1(CC(=O)N2CCCC2c2nccs2)CC(=O)N(C2CCCC2)C1=O (stereo not given) | nt | nt | nt | nt | i | nt
Cc1nc(C)c(CC(=O)N2CCOc3ccc(CN4CCOCC4)cc3C2)s1 | nt | nt | nt | nt | i | nt
Cc1c(C(=O)NCCc2cccnc2)cnn1-c1ncc2c(n1)-c1ccccc1CC2 | nt | nt | nt | nt | i | nt
COc1ccc(C(=O)NC2CCCc3c2cnn3-c2ccc(C)c(C)c2)c(OC)c1OC (stereo not given) | 13µM | i | i | i | i | i
COc1cccc(C(=O)NC2CCCc3c2cnn3-c2ccc(C)c(C)c2)c1OC (stereo not given) | ? | i | i | i | i | i
COC(=O)c1cccc(C(=O)NCc2nc(-c3ccccc3NC(C)=O)oc2C)c1 | nt | nt | nt | nt | i | nt
COCC(=O)Nc1cc(C(=O)N2CCc3ccccc3C2)c2c(c1)nc(-c1ccncc1)n2C | nt | nt | nt | nt | i | nt
O=C(CN1Cc2ccccc2OC(c2ccsc2)C1)NCc1ccc2c(c1)OCO2 (stereo not given) | nt | nt | nt | nt | i | nt
CCOc1ccc(CNC(=O)C2CCN(c3nnc(-n4c(C)ccc4C)s3)CC2)cc1 | 14.6µM | i | i | i | nt | nt
N#Cc1c(-c2ccco2)cc(-c2ccc(F)cc2)nc1N | nt | i | i | 1µM | i | i
CCOCCn1ccc2c(OCC(=O)Nc3ccc(OC)c(OC)c3)cccc2c1=O | 11.6µM | nt | i | i | i | i
CCn1c(=O)cc(SCC(=O)Nc2ccc(OC)c(OC)c2)c2ccccc21 | 16.4µM | i | i | i | i | i
COc1cc(NC(=O)CSc2cc(=O)n(C)c3ccccc23)cc(OC)c1OC | 20.6µM | i | i | i | i | nt
